Data: PubChem BioAssay AID488899 (Broad Institute, 2010)
Only a part is listed here, and it is no random draw. Some salts and complexes are drawn in separate pieces, as the source files them; their charges need not balance. Activity calls are given as the source filed them.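 The calls were made as follows: active = mean inhibition across replicates of 60% or more, whatever share of single replicates reaches that level; inconclusive = some that reach 60%, reason not given; inactive = mean inhibition across replicates below 60%.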

Test: MITF transcriptional activity suppression – cell-based, SK-MEL-5, single point, luciferase, primary screen (AID 488899)
Conditions: SK-MEL-5 TRPM1 promoter luciferase, 24 h; at 12.5 µM; active compounds read high
With `CCOC(=O)c1ccc(NP(C)(=O)Oc2ccc(OC)cc2)cc1` (centres undefined) the inhibition was inactive: -4.81%. For `CCOP(C)(=S)SCC(=O)NC(C)C(=O)O` (centres undefined), the inhibition was inactive: 4.63%. With `CP(=O)(Nc1ccccn1)Oc1ccc(Cl)cc1` (centres undefined) the inhibition was inactive: -0.141%. In the case of `CP(=O)(Oc1ccccc1)OC(c1ccccc1)C(F)(F)F` (centres undefined), the inhibition is reported as inactive: 10.7%. In the case of `Cc1cccc(C)c1OP(C)(=O)Nc1ccc(SC(F)(F)F)cc1` (centres undefined), the inhibition is reported as inactive: -15.8%. For `Cc1cc(C)cc(OP(C)(=O)Nc2ccc(SC(F)(F)F)cc2)c1` (centres undefined), the inhibition was inactive: -2.24%. With `CCc1ccc(OP(C)(=O)N2CCN(c3ccc([N+](=O)[O-])cc3)CC2)cc1` (centres undefined) the inhibition was inactive: 19.2%. For `CP(=O)(NC(=O)Nc1ccccc1)Oc1ccccc1` (centres undefined), the inhibition was inactive: 0.331%. In the case of `CP(=S)(Nn1cnnc1)Oc1ccccc1` (centres undefined), the inhibition is reported as inactive: 6.37%. In the case of `CP(=O)(Nc1ccccc1Br)Oc1ccccc1` (centres undefined), the inhibition is reported as inactive: 3.49%. In the case of `COc1ccccc1OP(C)(=O)Nc1ccccc1` (centres undefined), the inhibition is reported as inactive: -18.2%. For `Cc1ccc(NP(C)(=O)Oc2ccccc2)c(C)c1` (centres undefined), the inhibition was inactive: 7.57%. In the case of `COc1ccccc1OP(C)(=O)Nc1ccc(C)cc1` (centres undefined), the inhibition is reported as inactive: 16.9%. In the case of `CCOC(=O)c1ccc(NP(C)(=O)Oc2ccccc2)cc1` (centres undefined), the inhibition is reported as inactive: 5.21%. With `Cc1cc(C)cc(OP(C)(N)=O)c1` (centres undefined) the inhibition was inactive: 2.3%. In the case of `COc1ccc(OP(C)(=O)Nc2cccc(F)c2)cc1` (centres undefined), the inhibition is reported as inactive: 8.02%. With `COc1ccccc1OP(C)(=O)Nc1cc(Cl)ccc1C` (centres undefined) the inhibition was inactive: 2.16%. In the case of `O=[N+]([O-])c1cc([N+](=O)[O-])c(Nc2cccnc2)c([N+](=O)[O-])c1`, the inhibition is reported as inactive: 1.91%. In the case of `O=[N+]([O-])c1ccc2c(c1)C=Nc1ccccc1O2`, the inhibition is reported as inactive: 11.8%. For `Cc1cccc(C)c1OP(C)(N)=O` (centres undefined), the inhibition was inactive: -1.87%. For `CC(C)(C)c1ccc(OP(C)(=O)Nc2ccc(SC(F)(F)F)cc2)cc1` (centres undefined), the inhibition was inactive: 9.05%. With `CCN(CC)CCCOC(=O)C(O)(c1ccccc1)c1ccccc1` the inhibition was inactive: 9.58%. In the case of `Cc1ccc(C)c(NP(C)(=O)Oc2ccccc2)c1` (centres undefined), the inhibition is reported as inactive: -7.1%. In the case of `CP(=O)(Nc1cccc(Br)c1)Oc1ccccc1` (centres undefined), the inhibition is reported as inactive: -2.48%. In the case of `Cc1cc(C)cc(OP(C)(=O)Nc2ccccn2)c1` (centres undefined), the inhibition is reported as inactive: -4.33%. For `COc1ccccc1OP(C)(=O)Nc1cccc(Br)c1` (centres undefined), the inhibition was inactive: 6.15%. In the case of `CCOC(=O)c1ccc(NP(C)(=O)Oc2cc(C)cc(C)c2)cc1` (centres undefined), the inhibition is reported as inactive: 3.48%. For `Cc1cc(C)cc(OP(C)(=O)Nc2ccc(C)cc2C)c1` (centres undefined), the inhibition was inactive: -6.72%. With `CC1=NCCc2c1[nH]c1ccccc21.O=[N+]([O-])c1cc([N+](=O)[O-])c(O)c([N+](=O)[O-])c1` the inhibition was inactive: 4.25%. For `O=C(O)c1cccc(Nc2c([N+](=O)[O-])cc([N+](=O)[O-])cc2[N+](=O)[O-])c1`, the inhibition was inactive: 3.55%. In the case of `CN1CCCCC1COC(=O)C1(O)c2ccccc2CCc2ccccc21` (centres undefined), the inhibition is reported as inactive: 0.723%. With `COc1ccccc1OP(C)(=O)Nc1c(C)cccc1C` (centres undefined) the inhibition was inactive: 16.1%. With `CP(=O)(Nc1ccc(SC(F)(F)F)cc1)Oc1ccccc1` (centres undefined) the inhibition was inactive: -6.44%. For `CCOC(=O)C(CC)C1=NC(C)(C)Cc2ccccc21.O=[N+]([O-])c1cc([N+](=O)[O-])c(O)c([N+](=O)[O-])c1` (centres undefined), the inhibition was inactive: 3.55%. With `O=[N+]([O-])c1cc([N+](=O)[O-])c(Nc2nnnn2CCO)c([N+](=O)[O-])c1` the inhibition was inactive: -8.47%. For `CC1=C2N=C(C=C3N=C(C(C)=C4[N-][C@@](C)([C@@H]5N=C1[C@](C)(CCC(=O)NC[C@@H](C)OP(=O)([O-])O[C@H]1[C@@H](O)[C@@H](n6cnc7cc(C)c(C)cc76)O[C@@H]1CO)[C@H]5CC(N)=O)[C@@](C)(CC(N)=O)[C@@H]4CCC(N)=O)[C@@](C)(CC(N)=O)[C@@H]3CCC(N)=O)C(C)(C)[C@@H]2CCC(N)=O.[C-]#N.[Co+3]`, the inhibition was inactive: 6.76%. With `O=[N+]([O-])c1cc([N+](=O)[O-])c(-c2cnn(-c3ccccc3)c2)c([N+](=O)[O-])c1` the inhibition was inactive: 36.9%. With `Cc1nc2ccc3ccccc3c2s1.O=[N+]([O-])c1cc([N+](=O)[O-])c(O)c([N+](=O)[O-])c1` the inhibition was inactive: -4.7%. In the case of `O=[N+]([O-])c1cc([N+](=O)[O-])c(-n2nnc3ccccc32)c([N+](=O)[O-])c1`, the inhibition is reported as inactive: 0.784%. With `CP(=O)(Nc1ccc2c(c1)OCCO2)Oc1ccccc1` (centres undefined) the inhibition was inactive: 44.9%. With `Cc1ccccc1NP(C)(=O)Nc1ccccc1C` the inhibition was inactive: -17.2%. With `CP(=O)(Nc1ccc(SC(F)(F)F)cc1)Oc1ccc(F)cc1` (centres undefined) the inhibition was inactive: -6.41%. With `CCOP(C)(=S)SCC(=O)NC(C)(CC)C(=O)O` (centres undefined) the inhibition was inactive: -7.23%. In the case of `O=[N+]([O-])c1ccc(OP2(=O)COCCO2)cc1` (centres undefined), the inhibition is reported as inactive: 6%. In the case of `Cc1cc(-c2cccc3ccccc23)c(C)cn1.O=[N+]([O-])c1cc([N+](=O)[O-])c(O)c([N+](=O)[O-])c1`, the inhibition is reported as inactive: 6.97%. With `O=[N+]([O-])c1cc([N+](=O)[O-])c(NCC2CCS(=O)(=O)C2)c([N+](=O)[O-])c1` (centres undefined) the inhibition was inactive: 43.4%. In the case of `Cc1c(C(c2ccc3c(c2)OCO3)c2c(C)n(C)n(-c3ccccc3)c2=O)c(=O)n(-c2ccccc2)n1C.O=[N+]([O-])c1cc([N+](=O)[O-])c(O)c([N+](=O)[O-])c1`, the inhibition is reported as inactive: -9.23%. In the case of `COc1ccc(OP(C)(=O)Nc2cccc(Br)c2)cc1` (centres undefined), the inhibition is reported as inactive: 8.33%. In the case of `CN(C)CCOC(=O)C(O)(c1ccccc1)C1CCCCC1` (centres undefined), the inhibition is reported as inactive: -9.75%. In the case of `COc1ccc(NP(C)(=O)Oc2ccccc2OC)cc1` (centres undefined), the inhibition is reported as inactive: 21.2%. In the case of `Cc1c([N+](=O)[O-])cc([N+](=O)[O-])c(Br)c1[N+](=O)[O-]`, the inhibition is reported as inactive: -0.734%. For `CCN(CC)CCCOC(=O)C(O)(c1ccccc1)C1CCCCC1` (centres undefined), the inhibition was inactive: -11.1%. For `CP(=O)(Nc1ccccc1)Oc1ccc(F)cc1` (centres undefined), the inhibition was inactive: 2.92%. In the case of `O=[N+]([O-])c1cc([N+](=O)[O-])c(OC2CCCCC2O)c([N+](=O)[O-])c1` (centres undefined), the inhibition is reported as inactive: -8.33%. For `CCCCCOc1ccc(NP(C)(=O)Oc2ccc(Cl)cc2Cl)cc1` (centres undefined), the inhibition was inactive: 3.78%. For `CCOC(=O)c1ccc(NP(C)(=O)Oc2ccc(F)cc2)cc1` (centres undefined), the inhibition was inactive: -9.44%. For `COc1ccc(OP(C)(=O)Nc2ccc(SC(F)(F)F)cc2)cc1` (centres undefined), the inhibition was inactive: 8.16%. In the case of `O=C(OC1CN2CCC1CC2)c1ccc([N+](=O)[O-])cc1` (centres undefined), the inhibition is reported as inactive: 3.54%. In the case of `O=C(OCCN1CCN(CCOCc2ccccc2)CC1)C(O)(c1ccccc1)c1ccccc1`, the inhibition is reported as inactive: 8.84%. With `COc1ccc2c(c1O)-c1c(O)c(OC)cc3c1[C@H](C2)[N+](C)(C)CC3.O=[N+]([O-])c1cc([N+](=O)[O-])c([O-])c([N+](=O)[O-])c1[O-]` the inhibition was inactive: 20.2%. With `CP(=O)(Nc1ccccc1F)Oc1ccccc1` (centres undefined) the inhibition was inactive: 3.7%. For `CC(C)c1ccc(OP(C)(=O)Nc2ccc(SC(F)(F)F)cc2)cc1` (centres undefined), the inhibition was inactive: -1.3%. With `O=[N+]([O-])c1cc([N+](=O)[O-])c(Nc2ccccn2)c([N+](=O)[O-])c1` the inhibition was active: 84.5%. For `Cc1c(NP(C)(=O)Oc2ccc(C(C)C)cc2)c(=O)n(-c2ccccc2)n1C` (centres undefined), the inhibition was inactive: 3.58%. In the case of `COc1ccccc1OP(C)(=O)Nc1ccc(C)cc1C` (centres undefined), the inhibition is reported as inactive: 7.49%. In the case of `CP(=O)(Nc1ccccn1)Oc1ccccc1` (centres undefined), the inhibition is reported as inactive: 3.2%. With `CCc1ccc(OP(C)(=O)O)cc1` the inhibition was inactive: -1.22%. With `COc1ccccc1OP(C)(=O)Nc1ccc(Br)cc1` (centres undefined) the inhibition was inactive: 8.03%. With `COc1ccc(OP(C)(=O)Nc2ccccn2)cc1` (centres undefined) the inhibition was inactive: 6.61%. In the case of `CN(C)CCOC(=O)C(O)(c1ccccc1)C1CCCC1` (centres undefined), the inhibition is reported as inactive: 2.77%. In the case of `CP(=O)(OCCOc1ccccc1)OCCOc1ccccc1`, the inhibition is reported as inactive: -4.38%. With `CP(=O)(Nc1ccc(Cl)cc1Cl)Oc1ccccc1` (centres undefined) the inhibition was inactive: 3.25%. In the case of `CCCCCCCCCCCCCCCC1C[N+](C)(C)CCOP(C)(=O)O1` (centres undefined), the inhibition is reported as inactive: 8.21%. With `Cc1cc(C)cc(OP(C)(=O)Nc2cccc(C(F)(F)F)c2)c1` (centres undefined) the inhibition was inactive: -5.22%. For `O=C1C(O)=C([N+](=O)[O-])C(=O)C(O)=C1[N+](=O)[O-]`, the inhibition was inactive: -3.26%. In the case of `COc1ccccc1OP(C)(=O)Nc1ccc(C)c(C)c1` (centres undefined), the inhibition is reported as inactive: 8.56%. For `COc1ccc(OP(C)(=O)Nc2ccccc2Br)cc1` (centres undefined), the inhibition was inactive: -4.32%. For `CCOC(=O)c1ccc(NP(C)(=O)Oc2ccc(Cl)cc2)cc1` (centres undefined), the inhibition was inactive: -2%. In the case of `CP(=O)(OC12CC3CC(CC(C3)C1)C2)OC12CC3CC(CC(C3)C1)C2`, the inhibition is reported as inactive: 11.2%. With `CC(C)(C)c1ccc(OP(C)(=O)O)cc1` the inhibition was inactive: 8.84%. With `COc1ccccc1OP(C)(=O)Nc1ccccc1Br` (centres undefined) the inhibition was inactive: 8.32%. For `CP(=O)(Nc1ccc(Cl)cc1)Oc1ccc(F)cc1` (centres undefined), the inhibition was inactive: 1.9%. With `CN(C)C(=O)c1c([N+](=O)[O-])cc([N+](=O)[O-])cc1[N+](=O)[O-]` the inhibition was inactive: 46.1%. In the case of `COc1ccc(OP(C)(=O)Nc2ccc(Br)cc2)cc1` (centres undefined), the inhibition is reported as inactive: -13.3%. In the case of `CCN(CC)CC(O)COC(=O)C(O)(c1ccccc1)C1CCCCC1` (centres undefined), the inhibition is reported as inactive: -2.03%. For `O=C(OCCCN1CCCC1)C(O)(c1ccccc1)C1CCCCC1` (centres undefined), the inhibition was inactive: -8.54%. For `COc1ccccc1OP(C)(=O)Nc1c(C)n(C)n(-c2ccccc2)c1=O` (centres undefined), the inhibition was inactive: -15.6%. In the case of `CCc1ccc(OP(C)(=O)Nc2cccnc2)cc1` (centres undefined), the inhibition is reported as inactive: 3.6%. For `CP(=O)(Oc1ccccc1)N1CCOC1=O` (centres undefined), the inhibition was inactive: 4.05%.
